Test results from ChEMBL document CHEMBL1155012, “Modulation of peripheral serotonin levels by novel tryptophan hydroxylase inhibitors for the potential treatment of functional gastrointestinal disorders” (J Med Chem, 2008).

Biological target: T1, Tryptophan 5-hydroxylase 1 (Homo sapiens, UniProt P17752)
T1 sequence (P17752 whole entry): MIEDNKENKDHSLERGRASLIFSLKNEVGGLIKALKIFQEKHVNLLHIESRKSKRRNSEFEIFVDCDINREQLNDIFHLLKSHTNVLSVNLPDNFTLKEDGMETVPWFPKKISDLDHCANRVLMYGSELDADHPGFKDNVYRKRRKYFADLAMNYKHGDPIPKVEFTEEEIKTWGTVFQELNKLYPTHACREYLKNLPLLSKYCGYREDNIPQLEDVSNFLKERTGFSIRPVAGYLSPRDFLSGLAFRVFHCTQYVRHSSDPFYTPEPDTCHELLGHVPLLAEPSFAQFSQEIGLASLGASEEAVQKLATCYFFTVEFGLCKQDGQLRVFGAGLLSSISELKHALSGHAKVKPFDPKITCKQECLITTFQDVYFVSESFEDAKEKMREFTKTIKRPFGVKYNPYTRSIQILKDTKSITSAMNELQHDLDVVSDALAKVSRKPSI
Assay: Inhibition of TPH1

IC50: 26 nM
Structure (SMILES): C[C@@H](Nc1nc(N)nc(-c2ccc(C[C@H](N)C(=O)O)cc2)n1)c1ccc2ccccc2c1
